In PMC12077799, “Fragment-based drug discovery for transthyretin kinetic stabilisers using a novel capillary zone electrophoresis method” (PLOS One, 2025):

Target: TTR in undiluted normal human reference plasma (Homo sapiens, UniProt P02766)
Assay: 125I-T4 displacement assay in neat normal human plasma
Format: binding
Conditions: read-out: Mean 125I-T4 IC50 ± SD (N = 3), 4-parameter logistic fit

O=C(O)c1ccc(-c2ccccc2)cc1
IC50: 256 µM
